The values below come from patent US20190382481A1 (Janssen / Centocor, published 2019).

The chains behind the UniProt entries cited, without tags or fusion partners. A line that says so, or that is headed by a name, gives the form on record, which may keep a tag or linker. Residues count along the entry.
UniProt P20138, 18-364 limits assumed: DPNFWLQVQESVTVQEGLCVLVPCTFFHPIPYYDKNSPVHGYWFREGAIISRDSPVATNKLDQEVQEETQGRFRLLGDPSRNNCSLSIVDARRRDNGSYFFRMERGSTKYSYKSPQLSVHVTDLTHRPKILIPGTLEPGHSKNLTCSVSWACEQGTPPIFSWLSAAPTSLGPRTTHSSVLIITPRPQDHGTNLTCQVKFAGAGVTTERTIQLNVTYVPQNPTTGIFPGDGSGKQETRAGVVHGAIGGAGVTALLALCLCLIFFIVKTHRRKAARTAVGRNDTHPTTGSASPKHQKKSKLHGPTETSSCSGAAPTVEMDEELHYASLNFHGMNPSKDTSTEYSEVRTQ
UniProt P20138, 18-259 limits assumed, form in doubt: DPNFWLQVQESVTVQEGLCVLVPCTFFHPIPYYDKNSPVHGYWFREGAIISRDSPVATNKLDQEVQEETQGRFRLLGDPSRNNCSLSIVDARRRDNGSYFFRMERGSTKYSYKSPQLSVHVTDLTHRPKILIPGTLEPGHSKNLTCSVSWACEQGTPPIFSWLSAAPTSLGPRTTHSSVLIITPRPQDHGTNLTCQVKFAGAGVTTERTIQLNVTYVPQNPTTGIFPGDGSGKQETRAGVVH

Experiment [1] deals with T1, Cyno CD33 ECD-HSA (cyno).
T1 construct: Cyno CD33 ECD (Genbank printed as XP_0055901381) fused to HSA (C58S) and six-histidine tag; also called C33W1
In words: SPRi off-rate screen (IBIS MX96), mAb captured via anti-human Fc, C33W1 as analyte. As for the experimental part:
To begin assessing the biophysical binding properties of the purified mAbs an off-rate screen was performed. 76 OMNIRat anti-CD33 mAbs were tested for binding to recombinant human CD33 ECD-HSA (C33W2) and cyno CD33 ECD-HSA (C33W1) proteins (Janssen production) and the off-rate was measured by IBIS MX96 SPRi array platform (Carterra; Newton, Pa.). […] The sensor chip was transferred to the Continuous Flow Microspotter (CFM) unit to capture each anti-CD33 mAb at 10 μg/ml for 10 minutes. Binding was measured on IBIS SPRi by single cycle kinetics without regeneration. Each antigen concentration series (3 μM in 3 fold dilution series) was sequentially injected from low (0.46 nM) to high concentrations (3 μM) to bind to captured mAbs with an association time of 5 minutes and dissociation time of 15 minutes using PBST (PBS with 0.005% Tween) as running buffer. The raw binding data (.trix file format) were referenced and aligned using SprintX software (Wasatch, Ver 1.9.3.2), then exported (.ibmx file format) to Scrubber software (Ver. 2.0) for 1:1 binding kinetic analyses (Wasatch, version 2.0.0.33) to extract the koff results.

Experiment [2] concerns the target T2, Human CD33 full length (over-expressed on transduced HEK293F cells) (human, UniProt P20138).
T2 construct: also called huCD33; human CD33 expressing cells
In words: flow cytometry, HEK293F cells expressing human CD33. As for the experimental part:
(§1) OMNIRat antibodies identified via immunization, v-region cloned and subsequently expressed and purified were characterized further for binding to CD33 expressing cells and binding to recombinant antigens. The purified antibodies were assessed for binding to stably transfected HEK293F cells expressing human CD33 or cyno CD33 (generation described above) along with the parental HEK293F as negative control. Cells were harvested from tissue culture flasks using non-enzymatic dissociation buffer (Thermo Scientific). The flasks were rinsed twice with PBS and dissociation buffer was added to the flask, and the flask was incubated for 10 minutes at 37° C. until the cells became non-adherent. The cells were centrifuged at 300 g for 5 minutes and resuspended at 1.0×10⁶ cells/ml in staining buffer (Becton Dickinson; Franklin Lakes, N.J.). 50,000 cells/well of each cell type was plated in 50 μl of staining buffer in round bottom plates (Becton Dickinson). 50 μl of 2× concentration test mAb or isotype control was added at 3 dilutions and zero (120 nM, 12 nM, and 1.2 nM and 0 nM), and the resultant solution was incubated 30 min at 4° C. 100 μl staining buffer was added to all wells of each plate, the plates were spun at 300 g for 5 min, the buffer was removed, 200 μl staining buffer was added to all wells of each plate, the plates were spun at 300 g for 5 min, and the buffer was removed. 50 μl of 2 μg/ml of Goat-anti-human Fc AF647 secondary antibody (Jackson Immunoresearch; West Grove, Pa.) was added to all wells of the plates, and the plates were incubated for 30 min at 4° C. 100 μl staining buffer was added to all wells of the plates, the plates were spun at 300 g for 5 min, and the buffer was removed. 200 μl running buffer (running buffer is Staining buffer, 1 mM EDTA, 0.1% Pluronic Acid) was added to all wells of the plates, the plates were spun at 300 g for 5 min, and the buffer was removed. 30 ul running buffer containing Sytox Green live/dead dye (ThermoFisher) was added to all wells with cells and the plates were read on an iQue IntelliCyt flow cytometer. Cells were gated on forward vs. side scatter to eliminate debris, then on singlets and then on live cells which excluded the Sytox stain. Antibody binding was assessed by the mean fluorescence intensity in the AF647 channel.

The target of experiment [3] is T3, Cyno CD33 full length (over-expressed on transduced HEK293F / HEK 293T cells) (cyno).
T3 construct: also called cyCD33; cyno CD33 expressing cells
In words: flow cytometry, HEK293F cells expressing cyno CD33. As for the experimental part: as §1

Experiment [4] addresses T4, Cyno CD33 ECD-HSA (cynomolgus monkey).
T4 construct: Cyno CD33 ECD fused to HSA (C58S) and six-histidine tag; also called C33W1
Description: ProteOn SPR; mAb captured on anti-human Fc, antigen as analyte; 1:1 fit. As to the method:
(§2) The panel of mAbs was then further characterized for full affinity analysis as well as epitope binning. The binding of anti-CD33 mAbs to recombinant human CD33 ECD-HSA (C33W2) and cyno CD33 ECD-HSA (C33W1) was measured by ProteOn SPR (Bio-Rad). […] Human and cyno CD33-HSA proteins at 0.3 μM concentration in 3-fold dilution series of 5 concentrations flew in as analyte to bind to captured mAbs in the horizontal orientation. A buffer sample was also injected in the 6th channel to monitor the dissociation of captured mAb and baseline stability. […] The raw biding data were processed by double referencing after subtracting the response data from: 1) the inter-spot to correct for the non-specific interactions between the Ag and the empty chip surface; 2) the buffer channel to correct for baseline drifting due to the dissociation of captured mAb surface over time.

The next experiment concerns the target T5, Human CD33 ECD-HSA (human, UniProt P20138, in part).
T5 construct: Human CD33 ECD (Uniprot P20138) fused at the C-terminus to monomeric HSA (C58S) and a six-histidine tag; also called C33W2; huCD33 ECD-HSA; not shown: HSA (C58S) carrier, its junction or linker to the ECD, and the layout of the His tag
Described as above. As to the method:
as §2

B1: C33B64 (antibody, human IgG1, lambda, V domains shown)
VH: QLQLQESGPGLVKPSETLSLTCTVSGGSIRGSSYYWGWVRQPPGKGLEWIGSIYSSGNTYYNPSLKSRVTISVDTSKNQFSLKLSSVTAADTALYYCARLGSLVVVPAAMSFDYWGQGTLVTVSS
VL: not shown
notes: huIgG1 F405L; OMNIRat campaign; also called C33H52/N46L109
With B1, the koff with Cyno CD33 ECD-HSA [1] was 0.00121 s⁻¹. In experiment [2], the “MFI at 0 nM mAb (background)” value came to 115 MFI, the “MFI at 0.6 nM mAb” value came to 7560 MFI, the “MFI at 6 nM mAb” value came out at 54100 MFI and the “MFI at 60 nM mAb” value was 200000 MFI. In experiment [3], the “MFI at 0 nM mAb (background)” value is 99.8 MFI, the “MFI at 0.6 nM mAb” value was determined as 3100 MFI, the “MFI at 6 nM mAb” value was found to be 9690 MFI and the “MFI at 60 nM mAb” value stood at 21100 MFI.

B2: C33B75 (antibody, human IgG1, lambda, V domains shown)
VH: QLQLQESGPGLVKPSETLSLTCTVSGGSIRGSSYYWGWIRQPPGKGLEWIGSIYSSGNTYYNPSLKSRVTISVDTSKNQFSLKLSSVTAADTAVYYCARLGSLVVVPAAMSFDYWGQGTLVTVSS
VL: not shown
notes: huIgG1 F405L; HC C33H70, LC N46L109; also called C33F80
In the experiment with Cyno CD33 ECD-HSA [4], B2 gave a Kd of 2.15 nM, a koff of 0.00132 s⁻¹ and a kon of 616000 M⁻¹ s⁻¹.

B3: C33B64 (antibody, human IgG1, lambda, V domains shown)
VH: QLQLQESGPGLVKPSETLSLTCTVSGGSIRGSSYYWGWVRQPPGKGLEWIGSIYSSGNTYYNPSLKSRVTISVDTSKNQFSLKLSSVTAADTALYYCARLGSLVVVPAAMSFDYWGQGTLVTVSS
VL: not shown
notes: huIgG1 F405L; HC C33H52, LC N46L109; also called C33F69
For B3, the Kd with Human CD33 ECD-HSA worked out at 5.1 nM. In the experiment with Cyno CD33 ECD-HSA [4], this molecule gave a Kd of 1.71 nM, a koff of 0.00101 s⁻¹ and a kon of 590000 M⁻¹ s⁻¹.

B4: C33B75 (antibody, human IgG1, lambda, V domains shown)
VH: QLQLQESGPGLVKPSETLSLTCTVSGGSIRGSSYYWGWIRQPPGKGLEWIGSIYSSGNTYYNPSLKSRVTISVDTSKNQFSLKLSSVTAADTAVYYCARLGSLVVVPAAMSFDYWGQGTLVTVSS
VL: not shown
notes: huIgG1 F405L; OMNIRat campaign; also called C33H70/N46L109
Molecule B4 yielded a koff in the experiment with Cyno CD33 ECD-HSA [1] of 0.0012 s⁻¹. In addition, in experiment [2], the “MFI at 0 nM mAb (background)” value came out at 95.9 MFI, the “MFI at 0.6 nM mAb” value is 4520 MFI, the “MFI at 6 nM mAb” value turned out to be 29600 MFI and the “MFI at 60 nM mAb” value was found to be 164000 MFI. Further, in experiment [3], the “MFI at 0 nM mAb (background)” value was determined as 124 MFI, the “MFI at 0.6 nM mAb” value stood at 1710 MFI, the “MFI at 6 nM mAb” value amounted to 5580 MFI and the “MFI at 60 nM mAb” value stood at 12200 MFI.
